Antibody variant affinities, Ab-14 light chain, assay 1

Reference: Engelhart et al. 2022, doi:10.1038/s41597-022-01779-4. File: FLAb, binding data.

All variants were tested on one target, the spike HR2 peptide PDVDLGDISGINAS (SARS-CoV-2).

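The parent was found by panning a naive human phage display library on the peptide. Library AAYL50 holds single substitutions and randomly drawn double and triple substitutions in the CDRs. Affinity was read by AlphaSeq, a pooled yeast mating assay with surface-displayed partners. Binding brings cells together so that they mate, and sequencing counts the barcode pairs among the diploids. Each replicate has its own calibration line, from reference interactions of the BCL2 family. Each pool was mated in three replicate cultures.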

Ab-14 is the parent antibody, in scFv form: VH, then three GGGGS repeats, then VL. The heavy chain is unchanged in all variants.
VH: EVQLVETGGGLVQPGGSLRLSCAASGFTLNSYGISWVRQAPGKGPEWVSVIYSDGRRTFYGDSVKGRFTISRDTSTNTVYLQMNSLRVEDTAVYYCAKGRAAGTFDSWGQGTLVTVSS
VL: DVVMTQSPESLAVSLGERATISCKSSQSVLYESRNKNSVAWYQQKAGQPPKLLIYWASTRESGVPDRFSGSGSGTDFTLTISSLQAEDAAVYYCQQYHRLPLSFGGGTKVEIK

Variants are written as CDR1, CDR2 and CDR3 of the light chain (limits as in the source). Parent: KSSQSVLYESRNKNSVA, WASTRES, QQYHRLPLS. All variants listed here change N35 of the VL, counted from its first residue. The Kd shown is the geometric mean over detected replicates; a lower Kd is a better binder. "nd" marks a missing value. The strain was present, yet no cells mated with the target were sequenced in any replicate, which points to weak or no binding. As a blank, each scFv also met three strains without target: over library AAYL50, 18% of these pairings were detected, typically at 15 µM and seldom below 970 nM.

* CSSQSVLYEIRGKNSVA / WASTRES / QQYHRLPLS -> nd (0 of 3 replicates)
* KSPQSVLYESRFKNSVA / WASTRES / QQYHRLPLS -> 44 nM (3 of 3 replicates)
* KSSYSVLYESRFKNSVA / WASTRES / QQYCRLPLS -> 79 nM (3 of 3 replicates)
* KSSQSVLYESRFKNSVA / GASTRES / QQYHRLPLS -> 1.3 nM (3 of 3 replicates)
* KGSQSVLYESRWKNSHA / WASTRES / QQYHRLPLS -> 36 µM (2 of 3 replicates)
* KSSQSTLYESRPKNSVR / WASTRES / QQYHRLPLS -> nd (0 of 3 replicates)
* KSSQSVLYESRVKNSVA / WAFTRES / QQYHRWPLS -> 180 µM (2 of 3 replicates)
* KSGQSVLYESRYKNSVA / WASTREH / QQYHRLPLS -> 190 nM (3 of 3 replicates)
* KSSQSVLYESRFKNSVW / WASTRES / QQYHRPPLS -> 21 µM (3 of 3 replicates)
* KSSISVLYESRGGNSVA / WASTRES / QQYHRLPLS -> 11 nM (3 of 3 replicates)
* KSSQSVLYESRHWNSVA / WASTRES / QQYHFLPLS -> 60 nM (1 of 3 replicates)
* KSSQSVLYESRRKNSVA / WASTRES / QQYHGLPTS -> nd (0 of 3 replicates)
* KSSQSVLYESRRKNSVC / WAWTRES / QQYHRLPLS -> nd (0 of 3 replicates)
* KSSQSVLYESHDKNSVA / WASTRES / QQHHRLPLS -> 1.6 µM (3 of 3 replicates)
* KSSQSVLKESRKKNSVA / WASTRES / QAYHRLPLS -> nd (0 of 3 replicates)
* KSSQSVLYESREQNSVA / WASTRES / QQYHSLPLS -> 2.8 nM (3 of 3 replicates)
* KSSQSVLYESNIKNSGA / WASTRES / QQYHRLPLS -> 5.1 µM (1 of 3 replicates)
* KSSQSVLYESRQMNSVA / WASTRES / QEYHRLPLS -> 110 nM (3 of 3 replicates)
* KSSQSVLYESRGKNSVI / WASTRKS / QQYHRLPLS -> nd (0 of 3 replicates)
* KSSQSVLYESRIKNSVA / WASTRES / QAAHRLPLS -> nd (0 of 3 replicates)
* KSSQSVLYTSRPKNSVA / WASTREC / QQYHRLPLS -> nd (0 of 3 replicates)
* KSSQSVWYESRGKNSVA / WWSTRES / QQYHRLPLS -> nd (0 of 3 replicates)
* KSSWSVLYESWSKNSVA / WASTRES / QQYHRLPLS -> nd (0 of 3 replicates)
* KSSQSVLYESRKKNSVA / WASTRES / QKYFRLPLS -> 300 nM (3 of 3 replicates)
* KSSQSVLYESRAKNSVA / WASTRES / QQYHRLPLS -> 9.3 nM (3 of 3 replicates)
* KSSQSVLYESREKNSVA / HASTCES / QQYHRLPLS -> nd (0 of 3 replicates)
* KSSQSVLYESRDKNSVA / WPSTRDS / QQYHRLPLS -> 11 nM (3 of 3 replicates)
* KSEQKVLYESRGKNSVA / WASTRES / QQYHRLPLS -> 28 nM (3 of 3 replicates)
* KSSQSVLYESRVKNSVA / WASQKES / QQYHRLPLS -> 120 nM (3 of 3 replicates)
* KSSQSVLYESRKKNSVA / WASTRES / QQYHRLCTS -> 510 nM (1 of 3 replicates)
* KSSQSVLYESRTKNSVA / WASTREE / QQYHRLCLS -> nd (0 of 3 replicates)

For reference, 3 entries of the list once more:

* KSSQSVWYESRGKNSVA / WWSTRES / QQYHRLPLS: nd (0 of 3 replicates)
* KSSQSVLYESRTKNSVA / WASTREE / QQYHRLCLS: nd (0 of 3 replicates)
* KSSQSVLYESRGKNSVI / WASTRKS / QQYHRLPLS: nd (0 of 3 replicates)

For reference, the parent read 4.4 nM as the reference entry and 48 nM as a member of this library.